{"source": "patent US10722578B2", "about": "“Methods and compositions for treating neuroblastoma” (The Children's Hospital of Philadelphia, priority 2008, dated 2020)", "key": {"[1]": {"tested_on": "ALK tyr1604 phosphorylation", "test": "In vitro phosphoprotein detection (immunoblot), phospho-ALK", "conditions": "2 hours with drug"}, "[2]": {"tested_on": "ALK and phospho-ALK Tyr 1604", "test": "Western blots of ALK and phospho-ALK, SY5Y", "conditions": "72 hours"}, "[3]": {"tested_on": "NSCLC patients harboring ALK translocations", "conditions": "cited from earlier work"}, "ALK phosphorylation": {"tested_on": "ALK phosphorylation", "conditions": "NB1643 xenografts, 2 days of administration, 4 hours after last oral dose"}, "cell surface ALK": {"tested_on": "cell surface ALK", "test": "Flow cytometry of cell surface ALK, SY5Y", "assay_type": "cell-based, human", "conditions": "1000 nM"}}, "data": [{"compound": "C[C@@H](Oc1cc(-c2cnn(C3CCNCC3)c2)cnc1N)c1c(Cl)ccc(F)c1Cl", "note": "[PF-02341066, crizotinib]", "values": [{"measurement": "Dose at which abrogation of phospho-ALK occurred", "setting": "[1]; NB1 (WT amplification)", "result": "33 to 100", "unit": "nM"}, {"measurement": "Dose at which abrogation of phospho-ALK occurred", "setting": "[1]; NB1643 (R1275Q)", "result": "33 to 100", "unit": "nM"}, {"measurement": "Total ALK levels", "setting": "[2]; 1000 nM crizotinib alone or with ALK antibody", "result": "Increases in total ALK levels"}, {"measurement": "Levels of phosphorylated ALK", "setting": "[2]; 1000 nM crizotinib alone or with antibody", "result": "substantially diminished"}, {"measurement": "Tumor response in patients", "setting": "[3]", "result": "remarkable tumor regression"}, {"measurement": "ALK phosphorylation in xenograft protein lysates", "setting": "ALK phosphorylation", "result": "inhibition of ALK phosphorylation"}, {"measurement": "Time post-treatment at which up-regulation of cell surface ALK was first evident", "setting": "cell surface ALK", "result": "approximately 8 hours"}]}]}
